Laboratory results: ChEMBL document CHEMBL4368915, “Synthesis and Biological Investigation of Phenothiazine-Based Benzhydroxamic Acids as Selective Histone Deacetylase 6 Inhibitors” (J Med Chem, 2019)

Molecular target: T1, Protein deacetylase HDAC6 (Homo sapiens, UniProt Q9UBN7)
T1 sequence (Q9UBN7 whole entry): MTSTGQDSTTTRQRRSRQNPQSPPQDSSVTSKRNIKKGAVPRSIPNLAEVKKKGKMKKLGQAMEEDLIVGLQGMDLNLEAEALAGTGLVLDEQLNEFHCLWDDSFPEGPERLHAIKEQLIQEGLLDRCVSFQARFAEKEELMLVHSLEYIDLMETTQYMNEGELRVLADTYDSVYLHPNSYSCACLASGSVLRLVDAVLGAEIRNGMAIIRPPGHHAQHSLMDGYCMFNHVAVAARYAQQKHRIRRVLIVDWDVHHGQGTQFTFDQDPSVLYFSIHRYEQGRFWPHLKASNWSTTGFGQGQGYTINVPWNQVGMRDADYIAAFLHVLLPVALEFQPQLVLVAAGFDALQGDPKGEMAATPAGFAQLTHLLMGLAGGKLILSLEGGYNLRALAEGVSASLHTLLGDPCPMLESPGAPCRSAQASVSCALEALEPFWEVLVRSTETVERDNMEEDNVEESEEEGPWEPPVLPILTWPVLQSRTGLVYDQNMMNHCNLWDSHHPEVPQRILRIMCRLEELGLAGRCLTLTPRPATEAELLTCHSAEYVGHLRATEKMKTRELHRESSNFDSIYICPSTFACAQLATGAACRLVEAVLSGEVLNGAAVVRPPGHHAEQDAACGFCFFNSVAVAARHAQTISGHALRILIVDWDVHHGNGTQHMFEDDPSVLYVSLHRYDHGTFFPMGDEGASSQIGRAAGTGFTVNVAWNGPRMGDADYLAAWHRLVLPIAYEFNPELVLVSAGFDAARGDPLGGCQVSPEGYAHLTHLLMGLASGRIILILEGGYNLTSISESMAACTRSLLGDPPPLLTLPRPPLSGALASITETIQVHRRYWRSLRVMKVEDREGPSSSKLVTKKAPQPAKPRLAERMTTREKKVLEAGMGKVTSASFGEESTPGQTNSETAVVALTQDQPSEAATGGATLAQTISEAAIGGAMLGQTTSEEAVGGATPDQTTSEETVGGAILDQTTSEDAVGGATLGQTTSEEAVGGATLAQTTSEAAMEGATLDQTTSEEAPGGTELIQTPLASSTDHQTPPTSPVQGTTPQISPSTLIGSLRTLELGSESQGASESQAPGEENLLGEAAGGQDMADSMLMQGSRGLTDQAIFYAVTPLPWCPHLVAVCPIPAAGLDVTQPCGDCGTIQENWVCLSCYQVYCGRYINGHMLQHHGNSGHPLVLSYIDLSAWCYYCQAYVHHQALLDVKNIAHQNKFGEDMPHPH

IC50: 13 nM
Compound: O=C(NO)c1ccc(CN2c3ccccc3S(=O)(=O)c3ccccc32)cc1
